Here are results for 1 compound from US7723071B2 (priority 1992, dated 2010).

Protein sequences, listed by entry. Tags and fused reporters are not part of them.
UniProt P42866, whole entry R47P/S53N/H54D/V245G/R258Q: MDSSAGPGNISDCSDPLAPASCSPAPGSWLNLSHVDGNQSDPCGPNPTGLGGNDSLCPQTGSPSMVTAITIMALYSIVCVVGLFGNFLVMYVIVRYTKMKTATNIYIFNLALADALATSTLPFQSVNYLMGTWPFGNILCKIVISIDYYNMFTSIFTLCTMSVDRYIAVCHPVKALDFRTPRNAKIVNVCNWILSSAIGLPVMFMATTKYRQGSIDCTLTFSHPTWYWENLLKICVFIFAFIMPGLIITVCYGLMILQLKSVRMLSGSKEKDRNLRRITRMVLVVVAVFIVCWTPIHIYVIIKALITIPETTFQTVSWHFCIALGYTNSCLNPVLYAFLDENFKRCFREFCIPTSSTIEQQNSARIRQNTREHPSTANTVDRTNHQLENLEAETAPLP

The target in the assay is T1, DOR-2 (mMOR-1) mu receptor (Mus musculus, UniProt P42866, H54D/R258Q/R47P/S53N/V245G).
T1 construct: expressed in transfected cells
The assay is classed as binding, murine.

Consider `CN1CC[C@]23c4c5ccc(O)c4O[C@H]2[C@@H](O)C=C[C@H]3[C@H]1C5` [morphine], for which the “binding to transfected cells” value was “bind morphine” and the “displacement of 3H-DPN” value is reported as “displacement of ^3H-DPN by nanomolar concentrations”.
